# Assay results from patent publication US20090306012A1, “THERAPEUTIC PROTOCOLS” (priority 2001, published 2009).
# Test: In vivo cytotoxicity (III), CMF±HA: overall survival time
# Conditions: mouse
# Method: The overall survival time was calculated as the time (days or weeks) that the animal lived, after the commencement of treatment.
substance,measurement,value
Cyclophosphamide/methotrexate/5-fluorouracil [CMF],Treatment toxicity (in words),very toxic
